# Test results as given in ChEMBL document CHEMBL1140667, “Pyrrolidino-tetrahydroisoquinolines bearing pendant heterocycles as potent dual H3 antagonist and serotonin transporter inhibitors” (Bioorg Med Chem Lett, 2007).
# Amino acid sequences for entries named in this document (tags omitted).
# UniProt P31652, whole entry: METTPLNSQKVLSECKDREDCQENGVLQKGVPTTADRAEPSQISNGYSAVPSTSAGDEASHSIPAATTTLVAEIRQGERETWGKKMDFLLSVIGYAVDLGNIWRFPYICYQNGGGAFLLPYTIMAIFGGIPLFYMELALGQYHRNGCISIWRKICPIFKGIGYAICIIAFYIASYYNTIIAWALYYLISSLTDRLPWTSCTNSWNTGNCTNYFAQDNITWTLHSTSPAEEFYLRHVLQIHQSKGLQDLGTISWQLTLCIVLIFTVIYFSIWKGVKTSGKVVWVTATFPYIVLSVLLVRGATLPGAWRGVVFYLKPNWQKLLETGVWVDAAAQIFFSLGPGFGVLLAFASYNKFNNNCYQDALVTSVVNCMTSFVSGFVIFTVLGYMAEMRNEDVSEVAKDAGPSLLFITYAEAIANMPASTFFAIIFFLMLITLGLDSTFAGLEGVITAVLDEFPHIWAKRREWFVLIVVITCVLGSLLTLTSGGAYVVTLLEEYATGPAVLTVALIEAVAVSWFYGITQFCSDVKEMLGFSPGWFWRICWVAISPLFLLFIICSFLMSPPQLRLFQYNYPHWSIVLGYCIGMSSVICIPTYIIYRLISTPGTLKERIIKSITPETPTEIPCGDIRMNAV
# Target: Sodium-dependent serotonin transporter (Rattus norvegicus, UniProt P31652)
# Test: Binding affinity to rat SERT
row,Ki,SMILES
1,3.3 nM,c1ccc([C@@H]2CN3CCC[C@@H]3c3cc(OCCCN4CCCCC4)ccc32)nc1
2,20 nM,c1cc([C@@H]2CN3CCC[C@@H]3c3cc(OCCCN4CCCCC4)ccc32)ccn1
